Experimental data from ChEMBL document CHEMBL4476868, “Benzimidazole derivatives and uses thereof” (2017).

Protein sequences, listed by entry. Tags and fused reporters are not part of them.
UniProt Q9NR19, whole entry: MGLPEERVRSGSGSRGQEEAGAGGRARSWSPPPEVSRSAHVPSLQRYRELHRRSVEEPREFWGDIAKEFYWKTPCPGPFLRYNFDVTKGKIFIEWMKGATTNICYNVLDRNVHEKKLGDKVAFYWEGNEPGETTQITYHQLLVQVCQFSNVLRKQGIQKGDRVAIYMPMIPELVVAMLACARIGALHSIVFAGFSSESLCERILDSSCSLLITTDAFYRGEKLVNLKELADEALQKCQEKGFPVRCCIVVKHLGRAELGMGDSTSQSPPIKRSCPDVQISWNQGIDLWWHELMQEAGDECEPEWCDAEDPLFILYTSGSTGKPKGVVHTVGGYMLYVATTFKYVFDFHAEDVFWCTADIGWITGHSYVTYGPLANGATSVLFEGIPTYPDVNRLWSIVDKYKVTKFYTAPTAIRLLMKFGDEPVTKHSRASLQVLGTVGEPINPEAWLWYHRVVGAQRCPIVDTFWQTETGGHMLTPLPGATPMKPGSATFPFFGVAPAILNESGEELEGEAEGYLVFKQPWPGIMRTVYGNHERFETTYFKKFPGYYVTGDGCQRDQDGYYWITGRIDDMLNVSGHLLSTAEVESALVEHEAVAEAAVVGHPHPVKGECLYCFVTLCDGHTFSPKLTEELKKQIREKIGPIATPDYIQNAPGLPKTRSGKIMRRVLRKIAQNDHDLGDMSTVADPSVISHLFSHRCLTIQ

target: Acetyl-coenzyme A synthetase, cytoplasmic (Homo sapiens, UniProt Q9NR19); assay: Inhibition of ACSS2 in human HCT116 cells pre-incubated for 2 hrs before [1,2-14C] sodium acetate addition and measured after 3 hrs by [14C]-Acetate uptake assay; assay type: cell-based

IC50, < 50 nM:
CCn1ccc(NC(=O)c2ccc3nc(C(O)(c4ccccc4F)c4ccccc4F)n(CCO)c3c2)n1
CCn1c(C(O)(c2ccccc2)c2ccccc2)nc2ccc(C(=O)NCC(F)(F)F)cc21
CCN1C[C@@H](NC(=O)c2ccc3nc(C(O)(c4ccccc4F)c4ccccc4F)n(C)c3c2)CCC1=O
CCn1c(C(O)(c2ccccc2)c2cccc(O)c2)nc2ccc(C(=O)NC[C@@H](C)O)cc21 (some centres undefined)
CCn1c(C2(O)c3ccccc3CCc3ccccc32)nc2ccc(C(=O)NC[C@@H](C)O)cc21
CCn1c(C(O)(c2ccccc2)c2ccccc2)nc2ccc(C(O)C(F)(F)COC(C)=O)cc21 (centres undefined)
CCn1cnc(C(=O)Nc2ccc3nc(C(O)(c4ccccc4)c4ccccc4)n(CC)c3c2)n1
CCn1ccc(NC(=O)c2ccc3nc(C(O)(c4ccccc4)c4ccccc4)n(C(C)C)c3c2)n1
CCn1c(C(O)(c2ccccc2)c2ccccc2)nc2ccc(NC(=O)COC(C)=O)cc21
CCn1cnc(NC(=O)c2ccc3nc(C(O)(c4ccccc4)c4ccccc4)n(CC)c3c2)c1
CCn1cnc(NC(=O)c2ccc3nc(C(O)(c4ccccc4)c4ccccc4)n(CC)c3c2)n1
C[C@@H](O)CNC(=O)c1ccc2nc(C(O)(c3ccccc3)c3ccccc3)n(CCO)c2c1
CCn1c(C(O)(c2ccccc2)c2ccc(O)cc2)nc2ccc(C(=O)NC[C@@H](C)O)cc21 (some centres undefined)
CCn1ccc(NC(=O)c2ccc3nc(C(O)(c4ccc(F)cc4)c4ccc(F)cc4)n(CC)c3c2)n1
